US20170340688A1, “TITRATED EXTRACTS OF CYNARA SCOLYMUS AND USES THEREOF” (priority 2014, published 2017)

System: MSTO211H and NCI-H2052
Assay: ATPlite cell vitality, extract in association with pemetrexed, MPM cell lines
Type: cell-based, human

Nc1nc2[nH]cc(CCc3ccc(C(=O)N[C@@H](CCC(=O)O)C(=O)O)cc3)c2c(=O)[nH]1 [PMTX, pemetrexed]
cell vitality (ATPlite) (72 h, extract 6 μg/ml where co-treated): cytotoxic for the MPM cells | concentration of pemetrexed sufficient to lower the cell vitality in double treatment (double treatment with extract at non-cytotoxic dose (6 μg/ml)): 10 µM
